Values quoted from earlier work as cited in patent US20150272935A1, “Use of a Factor Xa Inhibitor for Treating and Preventing Bleeding Events And Related Disorders in Patients Having Sensitivity to Vitamin K Antagonists Used As Anticoagulants” (priority 2014, published 2015).

Sequences of proteins named here, by UniProt entry; tags and fusion partners are left off. Residues count along the entry.
UniProt P00742, 41-179 partner limits assumed: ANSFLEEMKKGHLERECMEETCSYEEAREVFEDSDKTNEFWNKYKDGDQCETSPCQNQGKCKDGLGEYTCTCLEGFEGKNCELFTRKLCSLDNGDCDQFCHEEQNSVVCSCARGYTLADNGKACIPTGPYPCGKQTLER
UniProt P00742, 235-488 limits assumed: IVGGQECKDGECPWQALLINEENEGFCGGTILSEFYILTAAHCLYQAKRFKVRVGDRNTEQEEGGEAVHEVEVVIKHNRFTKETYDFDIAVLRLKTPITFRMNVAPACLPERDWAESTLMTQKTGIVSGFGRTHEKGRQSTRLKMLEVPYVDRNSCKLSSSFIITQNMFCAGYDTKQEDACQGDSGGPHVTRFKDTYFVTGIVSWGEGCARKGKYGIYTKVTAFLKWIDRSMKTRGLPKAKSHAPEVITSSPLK

Molecular target: free FXa (Homo sapiens, UniProt P00742)
Conditions: selectivity

In the case of `CN1CCc2nc(C(=O)N[C@@H]3C[C@@H](C(=O)N(C)C)CC[C@@H]3NC(=O)C(=O)Nc3ccc(Cl)cn3)sc2C1.Cc1ccc(S(=O)(=O)O)cc1` [Edoxaban], the “more potent inhibition of FXa than other biologically relevant serine proteases” value is given as > 10,000 fold.
